# Assay results taken from patent US20080317753A1, “SELECTING PATIENTS FOR THERAPY WITH A HER INHIBITOR” (GENENTECH, INC., priority 2004, published 2008).
# Tested on: ovarian cancer, primary peritoneal carcinoma or fallopian tube carcinoma
# Assay: Example 3: planned therapy of patients with gene expression profile associated with HER2 phosphorylation
# Type: in vivo, human
# Description: Patients who have progressed while receiving a platinum-based chemotherapy regimen, or patients who have progressed within 6 months after completing a platinum-based regimen, will be eligible for this study. Patients will be randomized to either receive gemcitabine in combination with pertuzumab, or gemcitabine in combination with placebo. Gemcitabine will be administered at 1000 mg/m^2 on days 1 and 8 of a 21 day cycle for a maximum of 8 cycles. Gemcitabine will be infused first over 30 minutes. Dose reductions will be permitted for toxicity. […] Response will be assessed at Cycles 3, 5, 7, 9, 13 and 17. Measurable disease will be assessed using the Response Evaluation Criteria for Solid Tumors (RECIST), by clinical evaluation and CT scan or equivalent. Response for subjects with evaluable disease will be assessed according to changes to CA-125 and clinical and radiologic evidence of disease. Responses should be confirmed 4-8 weeks after the initial documentation of response.
substance,measurement,setting,value
pertuzumab: humanized antibody comprising light and heavy chain sequences SEQ ID NOS. 13 and 14; inhibits dimerization of HER2 with other HER receptors,signs or symptoms of cancer by primary or secondary efficacy endpoints,"gemcitabine in combination with pertuzumab, 840 mg loading dose, then 420 mg, 21 day cycle",improvement in the signs or symptoms
same,"clinical benefit, patients with expression profile compared to patients without",patients with a gene expression profile associated with HER2 phosphorylation,greater clinical benefit
